Data: the Human Domainome abundance scans (Beltran et al. 2025)

B1: Tyrosine-protein kinase ABL1, residues 64 to 120; numbered along this chain, P00519 (parent)
chain: NLFVALYDFVASGDNTLSITKGEKLRVLGYNHNGEWCEAQTKNGQGWVPSNYITPVN

Variants of: B1
Assay: abundance fitness (aPCA) (normalised: wild type 0, dead -1); higher = more abundant; growth selection in yeast, the domain comes from the species named
Details: Homo sapiens

Abundance fitness: each site, then its substitutions
Q45: V -0.094 | S 0.063 | H 0.043 | P -0.397 | L -0.013 | A 0.202 | F -0.015 | Y -0.221 | K 0.195 | R -0.167 | G -0.286 | C -0.07 | D -0.196 | E -0.213 | N -0.362 | I -0.445
P55: A 0.005 | H -0.098 | I -0.002 | S -0.192 | K -0.086 | D 0.047 | M 0.062 | R -0.04 | E -0.089 | F -0.205 | G -0.1 | Q -0.189 | Y 0.214 | L -0.113 | N 0.07 | W -0.587 | C -0.072 | T -0.015
Y52: G -0.023 | C 0.049 | P -0.893 | K -0.094 | Q -0.305 | H -0.181 | R -0.028 | V 0.02 | D -0.694 | E -0.736 | M 0.13 | F 0.084 | W -0.204 | L 0.033 | A 0.232 | I -0.219 | T 0.258
N43: M -0.115 | Y -0.232 | T -0.145 | S 0.146 | I 0.005 | V 0.007 | Q 0.096 | D 0.037 | L -0.003 | G 0.128 | H -0.136 | K 0.118 | A 0.06 | C -0.334 | P -0.881 | F -0.524 | E -0.142 | R -0.016
W47: R -0.134 | N -0.132 | E -0.764 | Q -0.755 | D -0.647 | H -0.432 | G -0.991 | L 0.054 | S -0.386 | V -0.246 | M -0.196 | C -0.151 | P -0.318 | K -0.416 | F 0.238 | A -0.211 | Y 0.029 | I -0.21
P49: M -0.379 | W -0.51 | T -1.17 | Y -0.706 | L -0.33 | Q -0.301 | D -0.651 | R -0.039 | V -0.942 | C -0.514 | I -0.674 | A -0.538 | E -0.663 | G -1.03 | S -0.74 | N -0.578 | F -0.884
G44: R -0.191 | F -0.219 | Y -0.264 | D -0.285 | S -0.065 | P -0.852 | M -0.265 | V -0.423 | A -0.117 | T -0.531 | L -0.524 | E -0.195 | W -0.032 | K -0.056
V56: S -0.021 | I -0.199 | K 0.139 | M 0.192 | E 0.109 | P 0.209 | A -0.209 | R -0.149 | D -0.218 | H -0.003 | N 0.028 | L -0.126 | Q -0.414 | F 0.081 | Y 0.043 | C -0.159 | G -0.136
V48: W -1.02 | P -1.01 | I 0.058 | C -0.088 | G -1.04 | S -1.05 | Q -0.526 | F -0.334 | D -0.679 | M -0.41 | T -0.7 | R -0.967 | E -0.981 | A -0.679
K42: N -0.256 | A -0.016 | S -0.11 | L -0.126 | R 0.048 | P -0.183 | F -0.26 | M -0.166 | T -0.09 | V -0.025 | C -0.072 | D 0.243 | W -0.216 | G 0.107 | E 0.153 | Y 0.055 | Q -0.001
N57: L 0.093 | G -0.357 | Y -0.111 | I -0.422 | P 0.048 | K 0.752 | R -0.168 | Q 0.574 | H -0.347 | A 0.106 | V 0.047 | S 0.021 | D -0.068
I53: E -1.11 | L 0.082 | S -0.999 | K -0.684 | R -1.03 | M -0.217 | A -0.332 | Q -0.892 | G -0.999 | T -0.077 | C 0.044 | F -0.567 | W -0.974
T41: V -0.199 | C -0.022 | K -0.289 | P -0.842 | Q -0.712 | R -0.272 | I -0.327 | H -0.038 | S 0.159 | W -0.271 | Y -0.201 | L -0.47 | F -0.22 | A -0.308 | M -0.312 | G 0.096
G46: P -0.952 | V -0.251 | D -0.868 | Y -0.292 | M -0.231 | L -0.3 | K -0.77 | S -0.747 | W -0.263 | E -0.847 | R -0.415 | Q -0.681 | C -0.113 | F -0.359 | I -0.098 | A -0.083 | T -0.541
N51: F 0.017 | G -0.057 | K 0.006 | C -0.039 | I -0.233 | P -0.056 | S 0.001 | E 0.01 | D -0.127 | W -0.213 | T -0.039 | L -0.204 | Q -0.48 | V -0.242 | H -0.116 | M -0.277 | Y -0.236 | A -0.065 | R -0.076
Q40: M 0.063 | K 0.215 | R 0.091 | W -0.104 | L 0.013 | V 0.059 | S 0.06 | I -0.259 | N 0.025 | T -0.007 | Y 0.155 | P -0.917
S50: C 0.181 | D -0.395 | A 0.035 | T -0.08 | R 0.121 | G -0.109 | E -0.309 | Q 0.152 | N 0.091 | F -0.1 | V 0.056 | P -0.513 | Y -0.11 | L -0.07 | H -0.024 | I -0.493
T54: S 0.017 | K 0.127 | D -0.476 | V 0.118 | A -0.068 | L -0.193 | N 0.027 | C 0.063 | M -0.013 | I -0.099 | R 0.03 | G 0.094 | F -0.517 | H -0.004 | W 0.175 | E 0.157 | P -0.862
